“Also recorded” adds a separate entry of the source.
Tested on: CC531 cells
Test: Release and toxicity: MTT on cells incubated below drug-loaded hydrogel inserts
Settings: 10 wt % UPy-PEG10k hydrogel, total 1.8 mM

Structure (SMILES): CO[C@@]12[C@H](COC(N)=O)C3=C(C(=O)C(C)=C(N)C3=O)N1C[C@@H]1N[C@@H]12 [MMC, Mitomycin C, reference compound]
- Cytotoxicity after release from hydrogel, short term (immediately / first day): high activity towards killing the cells; also recorded: Short term cytotoxicity
- Cytotoxicity after release from hydrogel, long term (after a few days up to 18 days) (gels transferred to freshly seeded cells): effect is diminished

From US20200164078A1, “APPLICABLE CHEMICAL COMPOSITION COMPRISING AN AGENT CONJUGATED TO A HYDROPHOBIC MOIETY AND A CARRIER” (TECHNISCHE UNIVERSITEIT EINDHOVEN, priority 2017, published 2020)
